Measured values from BindingDB's records for PubMed 2867217 (Smith Kline & French Laboratories, 1986).
Where “and” joins values, the source holds several entries; their conditions need not be identical. Equal entries are not always repeated.

Target: T1, Alpha-1A adrenergic receptor (Rattus norvegicus, UniProt P43140)
T1 sequence (P43140 whole entry): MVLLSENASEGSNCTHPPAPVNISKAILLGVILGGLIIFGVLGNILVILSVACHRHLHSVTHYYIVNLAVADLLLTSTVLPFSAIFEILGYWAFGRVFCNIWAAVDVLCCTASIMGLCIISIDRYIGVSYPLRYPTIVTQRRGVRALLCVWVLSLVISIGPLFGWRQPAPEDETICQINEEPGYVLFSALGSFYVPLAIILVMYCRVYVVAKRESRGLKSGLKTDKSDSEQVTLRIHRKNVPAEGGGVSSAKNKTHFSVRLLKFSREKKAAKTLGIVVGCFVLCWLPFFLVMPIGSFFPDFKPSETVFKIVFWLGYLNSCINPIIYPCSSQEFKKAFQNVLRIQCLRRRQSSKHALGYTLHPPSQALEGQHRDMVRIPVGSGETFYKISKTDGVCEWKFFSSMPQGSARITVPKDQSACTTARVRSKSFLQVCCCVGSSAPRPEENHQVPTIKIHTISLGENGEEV

Ki: 562 nM and 263 nM
SMILES: COC(=O)[C@@H]1[C@H]2C[C@H]3c4[nH]c5ccccc5c4CCN3C[C@@H]2CC[C@@H]1O [yohimbic acid methyl ester]
